In patent publication US20180333502A1 (published 2018):

T1: human GITR on cells (activated human T cells; 3A9-hGITR cells) (human, UniProt Q9Y5U5 26-241)
T1 chain: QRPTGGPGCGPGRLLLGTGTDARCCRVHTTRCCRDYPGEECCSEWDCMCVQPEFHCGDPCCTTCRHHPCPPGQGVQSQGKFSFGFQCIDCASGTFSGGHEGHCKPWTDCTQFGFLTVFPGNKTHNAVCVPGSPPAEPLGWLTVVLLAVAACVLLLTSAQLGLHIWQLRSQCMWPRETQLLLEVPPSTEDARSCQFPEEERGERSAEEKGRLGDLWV

B1: anti-GITR-IgG2-IgG1 (antibody)
heavy: QVQLVESGGGVVQPGRSLRLSCAASGFTFSSYGMHWVRQAPGKGLEWVAVIWYEGSNKYYADSVKGRFTISRDNSKNTLYLQMNSLRAEDTAVYYCARGGSMVRGDYYYGMDVWGQGTTVTVSSASTKGPSVFPLAPCSRSTSESTAALGCLVKDYFPEPVTVSWNSGALTSGVHTFPAVLQSSGLYSLSSVVTVPSSNFGTQTYTCNVDHKPSNTKVDKTVERKCCVE[human IgG1 Fc not written out]
light: AIQLTQSPSSLSASVGDRVTITCRASQGISSALAWYQQKPGKAPKLLIYDASSLESGVPSRFSGSGSGTDFTLTISSLQPEDFATYYCQQFNSYPYTFGQGTKLEIKRTVAAPSVFIFPPSDEQLKSGTASVVCLLNNFYPREAKVQWKVDNALQSGNSQESVTEQDSKDSTYSLSSTLTLSKADYEKHKVYACEVTHQGLSSPVTKSFNRGEC
B2: anti-GITR-IgG1 (antibody)
heavy: QVQLVESGGGVVQPGRSLRLSCAASGFTFSSYGMHWVRQAPGKGLEWVAVIWYEGSNKYYADSVKGRFTISRDNSKNTLYLQMNSLRAEDTAVYYCARGGSMVRGDYYYGMDVWGQGTTVTVSSASTKGPSVFPLAPSSKSTSGGTAALGCLVKDYFPEPVTVSWNSGALTSGVHTFPAVLQSSGLYSLSSVVTVPSSSLGTQTYICNVNHKPSNTKVDKKV[human IgG1 Fc not written out]
light: B1 light
B3: anti-GITR-IgG1.1 (antibody)
heavy: QVQLVESGGGVVQPGRSLRLSCAASGFTFSSYGMHWVRQAPGKGLEWVAVIWYEGSNKYYADSVKGRFTISRDNSKNTLYLQMNSLRAEDTAVYYCARGGSMVRGDYYYGMDVWGQGTTVTVSSASTKGPSVFPLAPSSKSTSGGTAALGCLVKDYFPEPVTVSWNSGALTSGVHTFPAVLQSSGLYSLSSVVTVPSSSLGTQTYICNVNHKPSNTKVDKKVEPKSCDKTHTCPPCPAPEAEGAPSVFLFPPKPKDTLMISRTPEVTCVVVDVSHEDPEVKFNWYVDGVEVHNAKTKPREEQYNSTYRVVSVLTVLHQDWLNGKEYKCKVSNKALPSSIEKTISKAKGQPREPQVYTLPPSREEMTKNQVSLTCLVKGFYPSDIAVEWESNGQPENNYKTTPPVLDSDGSFFLYSKLTVDKSRWQQGNVFSCSVMHEALHNHYTQKSLSLSPG
light: B1 light

Target: T1, human GITR on cells (activated human T …)
Assay: FACS binding to activated human CD4 T cells

EC50 [nM] | Binder
0.203 | B1
0.257 | B2
0.286 | B3
